The results in this text go back to patent publication US9688669B2, “Oxazolidinones as modulators of mGluR5” (BRISTOL-MYERS SQUIBB COMPANY, priority 2013, dated 2017).

Chains of the proteins cited; added tags and fusions are not shown. A line that says so, or that is headed by a name, gives the form on record, which may keep a tag or linker.
UniProt P41594, with tags, fused parts or gaps limits assumed: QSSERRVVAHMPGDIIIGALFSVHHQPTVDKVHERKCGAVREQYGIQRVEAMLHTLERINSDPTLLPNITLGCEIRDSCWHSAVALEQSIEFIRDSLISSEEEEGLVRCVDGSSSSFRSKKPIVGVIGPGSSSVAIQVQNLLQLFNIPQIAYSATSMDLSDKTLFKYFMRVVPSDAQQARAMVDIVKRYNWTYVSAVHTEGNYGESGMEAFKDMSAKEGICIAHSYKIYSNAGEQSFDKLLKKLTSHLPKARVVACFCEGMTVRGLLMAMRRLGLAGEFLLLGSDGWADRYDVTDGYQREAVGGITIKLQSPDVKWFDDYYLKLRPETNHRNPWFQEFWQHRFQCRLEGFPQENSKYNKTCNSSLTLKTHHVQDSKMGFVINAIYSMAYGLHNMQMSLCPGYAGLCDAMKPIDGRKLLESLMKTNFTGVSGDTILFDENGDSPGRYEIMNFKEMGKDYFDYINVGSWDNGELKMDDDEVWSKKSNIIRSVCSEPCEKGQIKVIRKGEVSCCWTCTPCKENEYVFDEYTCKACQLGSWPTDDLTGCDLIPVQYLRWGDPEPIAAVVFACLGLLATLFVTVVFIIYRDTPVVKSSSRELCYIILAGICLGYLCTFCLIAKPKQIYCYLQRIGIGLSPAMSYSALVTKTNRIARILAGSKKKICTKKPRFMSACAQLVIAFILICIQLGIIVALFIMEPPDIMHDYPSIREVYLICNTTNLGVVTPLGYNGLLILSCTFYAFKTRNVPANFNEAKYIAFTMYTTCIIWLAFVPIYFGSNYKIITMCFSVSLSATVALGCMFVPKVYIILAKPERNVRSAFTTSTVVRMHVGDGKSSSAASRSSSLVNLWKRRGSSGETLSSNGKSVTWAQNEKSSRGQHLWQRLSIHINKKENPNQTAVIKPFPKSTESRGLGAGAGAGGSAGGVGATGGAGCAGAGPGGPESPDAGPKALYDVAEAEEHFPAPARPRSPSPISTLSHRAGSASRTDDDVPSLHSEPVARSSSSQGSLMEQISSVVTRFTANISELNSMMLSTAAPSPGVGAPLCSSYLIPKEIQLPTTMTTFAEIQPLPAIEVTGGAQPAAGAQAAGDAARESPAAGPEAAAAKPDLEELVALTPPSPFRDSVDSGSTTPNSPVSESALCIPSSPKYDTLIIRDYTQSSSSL

For this test, the target named is human mGluR5A (Homo sapiens (Human), UniProt P41594). As to the kind of experiment: mGluR5 FLIPR Assay. Type of test: cell-based. The conditions noted are these: read-out: mGluR5 EC50, positive modulator activity, HEK293 (ZF) cells with human mGluR5A and rat GLAST, Ca++ response to ~EC10 l-glutamate.

As to `O=C1N[C@H](c2cncc(C#CCCCCO)c2)[C@@H](c2cccc(F)c2)O1`, the half-maximal effective concentration (EC50) came out at 26 nM.
